Results: US11579147B2, “Use of VNN1 as a biomarker and a therapeutic target in sarcomas” (INSERM (Institut National de la Santé et de la Recherche …, priority 2017, dated 2023)

Experiments:
R tumors = assay: tumor growth in C57BL/6 mice grafted with R cells; conditions: mouse, in vivo
R/VR chimeric tumors = conditions: mouse, in vivo

## CC(C)(CO)C(O)C(=O)NCCC(=O)NCCSSCCNC(=O)CCNC(=O)C(O)C(C)(C)CO (centres unmarked) [pantethine, N-[2-[2-[2-[3-(2,4-Dihydroxy-3,3-dimethyl-butanoyl)aminopropanoylamino]ethyldisulfanyl]ethylcarbamoyl]ethyl]-2,4-dihydroxy-3,3-dimethyl-butanamide]
R tumors
  growth of R tumors: reduce the growth of R tumors
R/VR chimeric tumors
  growth of R/VR chimeric tumors: inhibitory effect is further enhanced
